We go through four molecules from patent US20180177890A1, “LIGAND-CYTOTOXIC DRUG CONJUGATE, PREPARATION METHOD THEREOF, AND USE THEREOF” (priority 2015, published 2018).

In assay [1] the test system is human non-small cell lung cancer HCC827. As to the kind of experiment: Efficacy test on HCC827 transplanted tumor in nude mice. The class given is in vivo. Conditions: for tumor inhibition rate: multi-dose intraperitoneal injection, day 38. On the procedure:
In this test, Nude mice were used as the test animals to evaluate the efficacy of the ADC compounds 39 and 40 of the present invention on transplanted tumors of human non-small cell lung cancer HCC827 in nude mice after multi-dose intraperitoneal injection.
Tumor cell transplantation was performed after the nude mice were adapted to the laboratory environment for three days. HCC827 cells were inoculated subcutaneously in the right rib of nude mice (4×10^6+50% matrigel/mouse). On day 21 after inoculation, the drug was administered when the tumor grew to 209.41+25.93 mm^3 (dl).
Mice were measured for tumor volume twice a week, the body weight of the nude mice was weighed and the data were recorded.
Excel statistical software: mean value is calculated as average; SD is calculated as STDEV; SEM is calculated as STDEV/SQRT; P value between different groups is calculated as TTEST.
Tumor volume (V) is calculated as: V=1/2×Llength×Lshort^2 Relative volume (RTV)=VT/V0 Tumor Inhibition Rate (%)=(CRTV−TRTV)/CRTV (%) wherein V0 and VT represent the tumor volume at the beginning of the experiment and at the end of the experiment, respectively. CRTV and TRTV represent the relative tumor volume of blank control group (Blank) and test group at the end of the experiment, respectively.

The next assay has as its system HCC827 tumor cells. As to the kind of experiment: In vitro tumor cell proliferation inhibition test of antibody-drug conjugates against EGFR target, HCC827. The class given is cell-based, human. Particulars: HCC827, 76 hours incubation, CCK-8. On the procedure: The objective of this experiment is to test the in vitro proliferation inhibition effect of the antibody-drug conjugate against EGFR target according to the present invention on HCC827 tumor cells (non-small cell lung cancer cells, Chinese Academy of Sciences cell bank, No. #TCHu153). The cells were treated with different concentrations of the compound in vitro. After 76 hours of incubation, cell proliferation was detected by CCK-8 reagent (Cell Counting Kit-8, Dojindo, No. CK04), and the activity of the compound in vitro was evaluated according to the IC50 value.
According to the test method of test example 1, the test cells were HCC827, and the cell culture medium was RPMI1640 medium (Invitrogen) containing 10% FBS (v/v).

B1: 39: Nimotuzumab-propanethiol 39c coupled with drug-linker compound 4; average y=2.2 (conjugate, chains of the INN, looked up)
heavy: QVQLQQSGAEVKKPGSSVKVSCKASGYTFTNYYIYWVRQAPGQGLEWIGGINPTSGGSNFNEKFKTRVTITADESSTTAYMELSSLRSEDTAFYFCTRQGLWFDSDGRGFDFWGQGTTVTVSSASTKGPSVFPLAPSSKSTSGGTAALGCLVKDYFPEPVTVSWNSGALTSGVHTFPAVLQSSGLYSLSSVVTVPSSSLGTQTYICNVNHKPSNTKVDKKV[omitted - human IgG1 Fc]
light: DIQMTQSPSSLSASVGDRVTITCRSSQNIVHSNGNTYLDWYQQTPGKAPKLLIYKVSNRFSGVPSRFSGSGSGTDFTFTISSLQPEDIATYYCFQYSHVPWTFGQGTKLQITRTVAAPSVFIFPPSDEQLKSGTASVVCLLNNFYPREAKVQWKVDNALQSGNSQESVTEQDSKDSTYSLSSTLTLSKADYEKHKVYACEVTHQGLSSPVTKSFNRGEC
modifications: drug-linker compound 4 via propanethiol, DAR 2.2
Molecule B1 returned a tumor inhibition rate in assay [1] (0.05 mg/mouse) of 62.78%. This molecule also registered an IC50 in the assay on HCC827 tumor cells of 0.353 nM.

B2: 48: Nimotuzumab-propanethiol 39c coupled with drug-linker compound 45; average y=2.0 (conjugate, chains of the INN, looked up)
heavy: QVQLQQSGAEVKKPGSSVKVSCKASGYTFTNYYIYWVRQAPGQGLEWIGGINPTSGGSNFNEKFKTRVTITADESSTTAYMELSSLRSEDTAFYFCTRQGLWFDSDGRGFDFWGQGTTVTVSSASTKGPSVFPLAPSSKSTSGGTAALGCLVKDYFPEPVTVSWNSGALTSGVHTFPAVLQSSGLYSLSSVVTVPSSSLGTQTYICNVNHKPSNTKVDKKV[omitted - human IgG1 Fc]
light: DIQMTQSPSSLSASVGDRVTITCRSSQNIVHSNGNTYLDWYQQTPGKAPKLLIYKVSNRFSGVPSRFSGSGSGTDFTFTISSLQPEDIATYYCFQYSHVPWTFGQGTKLQITRTVAAPSVFIFPPSDEQLKSGTASVVCLLNNFYPREAKVQWKVDNALQSGNSQESVTEQDSKDSTYSLSSTLTLSKADYEKHKVYACEVTHQGLSSPVTKSFNRGEC
modifications: propanethiol-linked drug-linker compound 45, DAR 2.0
notes: Nimotuzumab-propanethiol 39c coupled with drug-linker compound 45; average y=2.0
For B2, the IC50 with HCC827 tumor cells was determined as 0.993 nM.

B3: 40: Nimotuzumab-propanethiol 39c coupled with drug-linker compound 8; average y=2.2 (conjugate, chains of the INN, looked up)
heavy: QVQLQQSGAEVKKPGSSVKVSCKASGYTFTNYYIYWVRQAPGQGLEWIGGINPTSGGSNFNEKFKTRVTITADESSTTAYMELSSLRSEDTAFYFCTRQGLWFDSDGRGFDFWGQGTTVTVSSASTKGPSVFPLAPSSKSTSGGTAALGCLVKDYFPEPVTVSWNSGALTSGVHTFPAVLQSSGLYSLSSVVTVPSSSLGTQTYICNVNHKPSNTKVDKKV[omitted - human IgG1 Fc]
light: DIQMTQSPSSLSASVGDRVTITCRSSQNIVHSNGNTYLDWYQQTPGKAPKLLIYKVSNRFSGVPSRFSGSGSGTDFTFTISSLQPEDIATYYCFQYSHVPWTFGQGTKLQITRTVAAPSVFIFPPSDEQLKSGTASVVCLLNNFYPREAKVQWKVDNALQSGNSQESVTEQDSKDSTYSLSSTLTLSKADYEKHKVYACEVTHQGLSSPVTKSFNRGEC
modifications: propanethiol-linked drug-linker compound 8, DAR 2.2
With B3, the results for the tumor inhibition rate in assay [1] (0.025 mg/mouse), in assay [1] (0.05 mg/mouse) and in assay [1] (0.1 mg/mouse) were 49.20%, 86.8% and 93.41%, respectively. Besides, the “anti-tumor effect in three different dose groups” value in assay [1] (0.025, 0.05, 0.1 mg/mouse) is listed as “dose dependent”. Further, half-maximal inhibition in the assay on HCC827 tumor cells (IC50) was put at 0.255 nM.

B4: 41: Nimotuzumab-propanethiol 39c coupled with drug-linker compound 26; average y=2.3 (conjugate, chains of the INN, looked up)
heavy: QVQLQQSGAEVKKPGSSVKVSCKASGYTFTNYYIYWVRQAPGQGLEWIGGINPTSGGSNFNEKFKTRVTITADESSTTAYMELSSLRSEDTAFYFCTRQGLWFDSDGRGFDFWGQGTTVTVSSASTKGPSVFPLAPSSKSTSGGTAALGCLVKDYFPEPVTVSWNSGALTSGVHTFPAVLQSSGLYSLSSVVTVPSSSLGTQTYICNVNHKPSNTKVDKKV[omitted - human IgG1 Fc]
light: DIQMTQSPSSLSASVGDRVTITCRSSQNIVHSNGNTYLDWYQQTPGKAPKLLIYKVSNRFSGVPSRFSGSGSGTDFTFTISSLQPEDIATYYCFQYSHVPWTFGQGTKLQITRTVAAPSVFIFPPSDEQLKSGTASVVCLLNNFYPREAKVQWKVDNALQSGNSQESVTEQDSKDSTYSLSSTLTLSKADYEKHKVYACEVTHQGLSSPVTKSFNRGEC
modifications: propanethiol-linked drug-linker compound 26, DAR 2.3
B4: in the assay on HCC827 tumor cells, the midpoint of inhibition, the IC50, lay at 0.451 nM.
